The list shows a part of the results, in another mix than the full data. Records with an inconclusive call do not appear. Activity calls are given as the source filed them. The call rests on the fitted dose curve; in most records, active means well fitted inhibition curve with a large enough effect in the main read-out, with a control signal flat (not every such curve was filed as active); inconclusive means small, poorly fitted or top-dose-only effect, or a change in a side signal; inactive means flat fitted curve, though single readings scatter.

Protein sequences, listed by entry. Tags and fused reporters are not part of them. Residues count along the entry.
UniProt P55210, 24-198 limits assumed: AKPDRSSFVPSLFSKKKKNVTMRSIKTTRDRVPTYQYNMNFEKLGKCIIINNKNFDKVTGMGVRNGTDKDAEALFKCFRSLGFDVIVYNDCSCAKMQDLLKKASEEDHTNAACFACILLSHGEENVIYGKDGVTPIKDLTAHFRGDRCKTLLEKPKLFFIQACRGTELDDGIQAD
UniProt P55210, 207-303 limits assumed: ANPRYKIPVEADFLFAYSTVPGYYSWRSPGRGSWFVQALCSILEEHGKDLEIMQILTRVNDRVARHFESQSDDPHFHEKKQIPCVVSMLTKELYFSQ

The target of the assay is Caspase-7 (Homo sapiens) (UniProt P55210). The assay is described as follows: qHTS Assay for Allosteric/Competitive Inhibitors of Caspase-7. Further: % of control where 0% means no effect. Particulars: recombinant caspase-7, Ac-DEVD-AFC fluorescence rate; at 57.5 µM (top of the series) unless noted. The text has this:
NIH Molecular Libraries Screening Centers Network [MLSCN]
NIH Chemical Genomics Center [NCGC]
PI Name: Dr. James Wells,
Dr. Enrique Perez-Paya, Dr.Janice Williams, Dr. Dennis Wolan, a person
The caspases (Cysteine Aspartyl Protease) comprise a related family of 14 dimeric proteases that are critical mediators of apoptosis (programmed cell death) and inflammation. The caspases represent an important class of drug targets for stroke, ischemia, cancer and inflammatory diseases. […] One goal of this project was to identify compounds that act as allosteric inhibitors via stabilizing the procaspase form of the enzyme. Previous work in Well's laboratory has shown that such allosteric inhibitors can be identified and these act by binding at the dimer interface of enzyme (Hardy, Lam et al., 2004).
The biochemical assay was configured using purified caspase 7 at a high enzyme concentration to promote formation of the homodimers and thus facilitate the identification of allosteric inhibitors. The overall goal was to identify reversible inhibitors with better drug-like properties than the currently available set of aspartyl-containing peptidomimetics that covalently bind the active site. Caspase 7 was assayed using the profluorescent substrate Ac-DEVD-AFC. After initiation of the assay with substrate the plates were rapidly read using an automated robotic system (Kalypsys, Inc.) to maintain consistent timing. A kinetic mode of detection was used where the initial rate was collected (estimated final product formation was ~10%). Compounds were screened as a concentration-titration series that ranged from 57 uM to 0.7 nM. Below is the protocol used for caspase 7.
NCGC Assay Protocol Summary:
Caspase 7 was prepared in buffer (50 mM HEPES pH 7.5, 50 mM KCl, 200 mM NaCl, 10 mM DTT, 0.1% CHAPS) at a concentration of 66.6 nM and 3 uL was dispensed to all wells using black solid Kalypsys 1536-well plates. 20 nL of DMSO containing compounds was added using a pin-tool (Kalypsys Inc.) to columns 5-48. Then 20 nL of DMSO solution from a control plate was added to columns 1-4. Controls were: Column 1, 16 point titration with each concentration in duplicate (1:1 dilutions in DMSO; final starting concentration was 57 uM) of the caspase 7 inhibitor Ac-DEVD-CHO (Alexis Biochemicals); Column 2, a 16 point titration with each concentration in duplicate of the free AFC fluorophore prepared in DMSO (Alexis Biochemicals), final starting was 40 uM; Column 3 neutral (DMSO only) control; Column 4: DMSO alone, to serve as a negative control (no substrate was added). Then 1 uL of 20 uM the substrate Ac-DEVD-AFC (Alexis Biochemicals) prepared in the same buffer was dispensed to all wells except columns 2 and 4 and the plates were immediately transferred (< 1 min) to the Viewlux. The plates were then exposed using 405 nm excitation/520 nm emission filters for 4 sec and read at 20 sec intervals for 3 min. Final enzyme concentration was 50 nM and the final substrate concentration was 5 uM.
Concentration-response curves were fitted to the data calculated from slope of the linear regression of fluorescent intensity versus time (the rate). The concentration-effect curves were then classified based on curve quality (r2), response magnitude and degree of measured activity. […] Inconclusive compounds had appreciable concentration-dependent effects on both the measured rate and the interpolated basal fluorescence intensity at the start of the reaction but where the basal fluorescent intensity was marginal (e.g. < 10-fold). Inconclusive compounds also encompass highly fluorescent compounds (>100-fold increases in fluorescent intensities values relative to controls) where artificial concentration-dependent decreases in the rate occurred at high compound concentrations due to fluorescent interferences.
Keywords: Caspase 7, proteases, profluorescent, MLSMR, MLSCN, NIH Roadmap, qHTS, NCGC
In general terms: qHTS replaces the single test concentration by a dilution series.
In the case of `NC1CCCCC1.NP(=O)(O)N(CCCl)CCCl`, the activity change, negative = inhibition is inactive: -1.17% [at 11.5 µM]. With `CCOP(=O)(Cl)Cl` the figure was inactive: -0.603%; with `N#CC1(Nc2ccccc2)CCN(CCc2ccccc2)CC1`, inactive: 0.283%. With `COc1ccc(NC2CCN(CCc3ccccc3)CC2)c(OC)c1` the figure was inactive: 1.03%. With `O=C(OC1CN2CCC1CC2)C1c2ccccc2Oc2ccccc21` (stereo unspecified) the figure was inactive: 1.24%; with `CCC(CO)(C(=O)OC1CN2CCC1CC2)c1ccccc1` (stereo unspecified), inactive: 0.277%. Turning to `O=C(O)C1(Nc2ccccc2)CCN(Cc2ccccc2)CC1`, the activity change, negative = inhibition was inactive: 2.4% [at 11.5 µM]. The same measure for `CCOc1ncccc1C(=O)NCC1(N2CCOCC2)CCCCC1`: inactive: 6.22%; for `Fc1ccccc1NC1CCN(Cc2ccccc2)CC1`: inactive: -1.36%; for `ClCCOP(OCCCl)OCCCl`: inactive: 0.163%.

As to `N/C(=N\O)c1c(N)no[n+]1[O-]`, the activity change, negative = inhibition is inactive: -1.38%.
